assay: Selectivity ratio of Ki for mouse ICE to Ki for human ICE

First: O=C[C@H](CC(=O)O)NC(=O)[C@@H]1CCCN2C(=O)CC[C@H](NC(=O)c3nccc4ccccc34)C(=O)N12 [VRT-18858]
Second: CC(C)[C@H](CC(=O)NCCc1cccc2ncccc12)C(=O)N[C@H](C=O)CC(=O)O
The Ratio Ki of the first is higher: 11.7 for the first, 8 for the second.

Molecule Cc1[nH]c2ccccc2c1CCNC(=O)C[C@H](C(=O)N[C@H](C=O)CC(=O)O)C(C)C has a Ratio Ki of 10.3.
